Molecular target: human BACE1 (Homo sapiens, UniProt P56817)
Assay: BACE-1 fluorescent kinetic assay (Example 88)
Conditions: read-out: BACE1 (IC50 μM); 10 nM enzyme, 25 μM substrate WABC-6, Na-Acetate pH 4.5, room temperature

Sequences of proteins named here, by UniProt entry; tags and fusion partners are left off. Residues count along the entry.
UniProt P56817, 46-501 limits assumed: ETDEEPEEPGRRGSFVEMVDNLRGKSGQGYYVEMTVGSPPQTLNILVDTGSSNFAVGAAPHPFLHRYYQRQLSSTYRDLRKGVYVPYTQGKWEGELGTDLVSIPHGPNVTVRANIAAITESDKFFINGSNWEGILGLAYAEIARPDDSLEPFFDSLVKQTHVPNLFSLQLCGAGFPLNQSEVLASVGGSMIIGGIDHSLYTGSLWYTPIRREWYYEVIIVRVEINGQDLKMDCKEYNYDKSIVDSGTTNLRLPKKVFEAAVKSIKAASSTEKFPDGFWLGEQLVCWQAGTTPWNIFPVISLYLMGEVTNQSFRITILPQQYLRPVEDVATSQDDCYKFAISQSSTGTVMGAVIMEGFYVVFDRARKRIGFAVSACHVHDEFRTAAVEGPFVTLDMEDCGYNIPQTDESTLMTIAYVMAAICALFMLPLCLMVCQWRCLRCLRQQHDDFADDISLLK

How did the IC50 turn out when COCC(=O)Nc1cccc(C2(C3CCN(C(=O)C4CCCCC4)CC3)N=C(N)N(C)C2=O)c1 (stereo not drawn) was run?
Its IC50 is 0.01 to 1 µM.

With COCC(=O)Nc1cccc(C2(C3CCN(C(=O)c4cncc(Br)c4)CC3)N=C(N)N(C)C2=O)c1 (stereo not drawn) as the compound, how does the IC50 read?
Its IC50 is 1.01 to 3 µM.

With COCC(=O)Nc1cccc(C2(C3CCN(C(=O)CCC4CCCCC4)CC3)N=C(N)N(C)C2=O)c1 (stereo not drawn) as the compound, how does the IC50 read?
Its IC50 is 0.01 to 1 µM.
